In the assay the test system is E. coli 70S ribosomes. Put plainly: Kinetic peptidyl transfer (puromycin) assay on E. coli 70S ribosomes. Type of assay: biochemical. The conditions noted are these: source data of Fig. 3b; unit printed in the legend b16 only; n = 2; read-out: Ki, app of fMet-Pmn release from 70S. Here is the method: The effects of GRn or PRn on peptide bond formation in E. coli ribosome were tested in an in vitro assay that reacts the 70S ribosome loaded with [^35S]-fMet-tRNA^fMet in the P-site with puromycin, an A-site tRNA mimic, and measures the release of the resulting dipeptide containing formyl-methionine covalently bonded to puromycin, as described. E. coli tRNA^fMet (Chemical Block) was aminoacylated with [^35S]-N-formyl-L-methionine (Perkin Elmer) as described. 70S ribosomes were prepared from E. coli (MRE600) as described. 70S ribosomes were stored in the ribosome-storage buffer (20 mM Tris-HCl, pH 7.0; 100 mM NH4Cl; 20 mM MgCl2) at –80 °C. […]
The kinetics of puromycin reaction on the 70S or 80S ribosomes were recorded and analyzed essentially as described. […] 600 μl of the extract were mixed with 3.5 ml of Econo-Safe scintillation cocktail (RPI), and the amount of released [^35S]-labeled dipeptide was measured for each time point using a scintillation counter (Beckman Coulter, Inc.).
All time progress curves were recorded in duplicates, using independently prepared 70S or 80S complexes. Reaction rates were calculated using single-exponential or double-exponential (80S complexes) regressions for different concentrations of PRn and GRn using GraphPad Prism 8. […]

As for `N=C(N)NCCC[C@H](NC(=O)CNC(=O)[C@H](CCCNC(=N)N)NC(=O)CNC(=O)[C@H](CCCNC(=N)N)NC(=O)CNC(=O)[C@H](CCCNC(=N)N)NC(=O)CNC(=O)[C@H](CCCNC(=N)N)NC(=O)CNC(=O)[C@H](CCCNC(=N)N)NC(=O)CNC(=O)[C@H](CCCNC(=N)N)NC(=O)CNC(=O)[C@H](CCCNC(=N)N)NC(=O)CNC(=O)[C@H](CCCNC(=N)N)NC(=O)CNC(=O)[C@H](CCCNC(=N)N)NC(=O)CN)C(=O)O` [GR10], the Ki is 634 nM.

The record behind these values is publication PMC9120013, “Ribosome inhibition by C9ORF72-ALS/FTD-associated poly-PR and poly-GR proteins revealed by cryo-EM” (Nature Communications, 2022).
